# Measured affinities in a library of Ab-14 heavy chain variants

All variants were tested on one target, the spike HR2 peptide PDVDLGDISGINAS (SARS-CoV-2).

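The parent was found by panning a naive human phage display library on the peptide. These sequences belong to a second round, designed from the earlier measurements on random variants of the parent. Their group label is 14H_En_HC (En: ensemble of fine-tuned language models; HC: hill climbing; a sequence that several methods proposed may carry one label only). In AlphaSeq, yeast of one mating type display the scFv and yeast of the other type display the target. Mating (16 h, 30 °C) was followed by selection of diploids and sequencing of their barcodes. A regression on co-assayed BCL2-family reference pairs converts the normalised counts of each replicate to an apparent Kd. Mating was done six times.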

Parent scFv Ab-14: VH joined to VL by the linker GGGGSGGGGSGGGGS. Changes lie in the heavy chain CDRs alone.
VH: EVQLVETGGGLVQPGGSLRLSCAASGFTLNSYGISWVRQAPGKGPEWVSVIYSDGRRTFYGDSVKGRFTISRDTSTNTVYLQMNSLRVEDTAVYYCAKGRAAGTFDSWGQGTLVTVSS
VL: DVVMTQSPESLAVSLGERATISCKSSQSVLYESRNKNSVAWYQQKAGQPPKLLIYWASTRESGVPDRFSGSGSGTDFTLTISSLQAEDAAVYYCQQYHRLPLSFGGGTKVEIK

Each variant is given by its three heavy chain CDRs, as the data file delimits them; those of the parent are GFTLNSYGIS, VIYSDGRRTFYGDSVK, GRAAGTFDS. Values are log10 of the apparent Kd in nM; lower means stronger binding. Replicates are averaged; those with no signal do not enter the mean. Where no diploid with the target was found in that replicate, the entry reads "n.d.": below detection, most likely a poor binder, though not proof of it. The parent sequence was in this pool as ten entries: three were never detected, three once, and four in most replicates, with averages from 0.34 to 2.37. The range of this assay differs from that of the first round, and the authors advise against merging the two. The authors' rule: three or more of the six replicates give a measured affinity, fewer mean a poor binder. Nonspecific signal, from three strains lacking the peptide, appeared in 1% of pairings of all heavy chain designs, centred on 2.08 (5% of these signals below 0.84); values are not corrected for it. Also given: how often the same scFv was detected with the empty control strains, with their mean in brackets.

CDR-H1 | CDR-H2 | CDR-H3 | replicates, log10 nM | log10 Kd (nM), mean | signal with controls
GFDLDEYGIS | VIYADGRRTFYADSVK | GTLAGTFDA | -0.56 -0.59 -0.76 -0.85 -0.92 -0.29 | -0.66 | 0 of 18
GFDLDEYGIS | VIYADGRRTAYKDSVK | GSNAGTFDM | -0.34 -0.38 0.48 -0.35 0.86 0.36 | 0.11 | 0 of 18
GFSLNEYGIS | VIYADGRRTFYADSVK | GNQAGTFDE | -0.77 -0.83 -1.07 -1.02 -0.75 -0.88 | -0.89 | 0 of 18
GFDLDEYGIS | VIYADGRRTFYQDSVK | GQNAGTFDL | 0.35 -0.53 -0.63 -0.52 0.13 -0.22 | -0.24 | 0 of 18
GFDLDEYGIS | VIYADGMRTFYIDSVK | GETAGTFDV | n.d. -1.67 -0.98 -0.01 -0.88 -0.75 | -0.86 | 0 of 18
GFDLNEYGIS | VIYADGRRTFYADSVK | GNTAGTFTN | -0.11 -0.31 -0.54 -0.41 -0.41 -0.31 | -0.35 | 0 of 18
GFDLNEYGIS | VIYADGRRTFYADSVK | GTNAGTILV | n.d. n.d. n.d. n.d. n.d. n.d. | n.d. | 0 of 18
GFNLNEYGIS | VIYADGRRKFYADSVK | GNVAGTFDS | 0.42 -0.22 -0.07 0.24 0.04 0.12 | 0.09 | 0 of 18
GFDLNEYGIS | VIYADGMRTAYTDSVK | GEVAGTFDA | -0.33 -0.48 0.05 -0.59 -0.44 -0.36 | -0.36 | 0 of 18
GFDLNEYGIS | VIYADGRRTAYSDSVK | GHAAGTFDL | -0.23 0.07 -0.26 -0.09 -0.30 0.62 | -0.03 | 0 of 18
GFDLEDYGIS | VIYADGKRTFYADSVK | GNVAGTFDS | -0.54 -0.69 -0.63 -0.94 -0.69 -0.73 | -0.70 | 0 of 18
GFDLDEYGIS | VIYADGMRTFYADSVK | GEIAGTFDV | -0.03 0.09 -0.19 -0.81 0.12 0.02 | -0.13 | 1 of 18 (2.25)
GFDLNEYGIS | VIYADGRRTAYADSVK | GQTAGTFDT | -0.09 -0.18 -0.54 -0.25 -0.25 -0.28 | -0.26 | 0 of 18
GFDLNEYGIS | VIYADGLRTSYADSVK | GENAGTFDQ | -0.48 -0.55 -0.38 -0.98 -0.72 -0.55 | -0.61 | 0 of 18
GFQLDEYGIS | VIYADGRRTFYADSVK | GEAAGTFDI | -0.20 -0.22 -0.57 -0.20 -0.56 -0.04 | -0.30 | 0 of 18
GFDLNEYGIS | VIYADGSRTFYSDSVK | GNAAGTFDV | -0.40 0.08 -0.54 -0.77 -0.58 -0.61 | -0.47 | 0 of 18
GFDLSEYGIS | VIYADGRRTFYTDSVK | GNVAGTFDV | -0.31 -0.42 -0.53 -0.72 -0.53 -0.44 | -0.49 | 0 of 18
GFDLNEYGIS | VIYADGRRTFYSDSVK | GTNAGTFDL | -0.33 -0.52 -0.59 -0.63 -0.57 -0.42 | -0.51 | 1 of 18 (2.03)
GFDLNEYGIS | VIYADGMRTFYTDSVK | GEVAGTFDD | -0.23 -0.60 -0.71 -0.65 -0.38 -0.65 | -0.54 | 0 of 18
GFDLDEYGIS | VIYADGMRTFYADSVK | GNIAGTFDV | -0.86 -1.04 -0.46 -1.16 -0.73 -0.86 | -0.85 | 0 of 18
GFNLDEYGIS | VIYADGRRTFYSDNVK | GEAAGTFDL | -0.29 -0.87 -0.27 -0.86 -0.87 -0.88 | -0.67 | 1 of 18 (1.18)
GFDLNEYGIS | VIYADGRRTFYADSVK | GQNAGTFSV | 0.16 0.18 -0.28 -0.16 -0.17 0.38 | 0.02 | 0 of 18
GFDLNEYGIS | VIYADGRRTFYTDSVK | GNNAGTFIS | 1.71 1.29 1.72 0.83 1.14 1.45 | 1.36 | 0 of 18
GFNLDEYGIS | VIYADGKRTFYQDSVK | GEVAGTFDF | -0.50 -1.00 -1.01 -0.92 -0.91 -0.83 | -0.86 | 0 of 18
GFDINEYGIS | VIYADGMRTFYADSVK | GQTAGTFDS | -0.71 -0.62 -0.90 -1.13 -0.56 -1.10 | -0.84 | 0 of 18
GFDLNEYGIS | VIYADGHRTFYSDSVK | GQNAGTFDA | -0.34 -0.66 -0.52 -0.76 -0.57 -0.49 | -0.56 | 0 of 18
GFDLNEYGIS | VIYADGRRSFYADSVK | GQLAGTFDE | -0.88 -0.67 -1.28 -1.19 -1.39 -0.82 | -1.04 | 0 of 18
GFDLNEYGIS | VIYADGRRTFYKDSVK | GETAGTFDQ | -0.04 -0.58 -0.69 -0.71 -0.49 -0.17 | -0.45 | 0 of 18
GFDLNEYGIS | VIYADGQRTFYSDSVK | GNVAGTFDS | -0.02 -0.49 -0.43 -0.41 -0.68 -0.25 | -0.38 | 0 of 18
GFDLDEYGIS | VIYADGMRTFYTDSVK | GGNAGTFDV | -0.30 -0.55 -0.64 -0.69 -0.65 -0.63 | -0.58 | 1 of 18 (1.72)
GFDLNEYGIS | VIYADGVRTFYVDSVK | GETAGTFDS | 0.59 -0.29 -0.34 -0.83 -0.57 -0.40 | -0.31 | 0 of 18
GFDLNEYGIS | VIYADGKRTFYSDSVK | GNAGGTFDI | 0.67 0.38 0.53 0.41 0.41 0.44 | 0.47 | 0 of 18
GFDLNEYGIS | VIYADGKRTFYADSVK | GQVAGTFDT | -0.45 -0.43 -0.59 -0.83 -0.63 -0.24 | -0.53 | 0 of 18
GFNLDEYGIS | VIYADGRRTAYSDSVK | GNVAGTFDI | -0.55 -0.67 -0.43 -0.68 -0.86 -0.51 | -0.62 | 1 of 18 (1.87)
GFDLNEYGIS | VIYADGVRTFYVDSVK | GETAGTFDI | n.d. n.d. n.d. n.d. n.d. n.d. | n.d. | 0 of 18
GFDLNEYGIS | VIYADGRRTFYSDSVK | GNAAGTFDS | 0.21 0.36 -0.31 0.27 0.60 0.33 | 0.24 | 0 of 18
GFDINEYGIS | VIYADGRRTQYADSVK | GEVAGTFDS | 0.02 -0.47 -0.47 -0.13 0.72 -0.38 | -0.12 | 0 of 18
GFDLNEYGIS | VIYADGRRTAYADSVK | GKIAGTFNV | -0.40 -0.45 -0.66 -0.52 -0.41 -0.40 | -0.47 | 0 of 18
GFDLNEYGIS | VIYADGRRTFYSDSVK | GGNGGTFDM | 0.93 0.49 0.19 0.52 0.34 0.08 | 0.43 | 0 of 18

Again, the first 2 entries without any signal:

| CDR-H1 | CDR-H2 | CDR-H3 | replicates, log10 nM | log10 Kd (nM), mean | signal with controls |
|---|---|---|---|---|---|
| GFDLNEYGIS | VIYADGRRTFYADSVK | GTNAGTILV | n.d. n.d. n.d. n.d. n.d. n.d. | n.d. | 0 of 18 |
| GFDLNEYGIS | VIYADGVRTFYVDSVK | GETAGTFDI | n.d. n.d. n.d. n.d. n.d. n.d. | n.d. | 0 of 18 |

Data: MIT Lincoln Laboratory AlphaSeq set, Li et al. 2023, doi:10.1038/s41467-023-39022-2, as distributed in FLAb.